Literature values, collected in patent US20260224588A1, “BENZODIAZEPINONE-DERIVED INHIBITORS OF EGFR AND HER2” (The Research Foundation for the State University of New York, priority 2023, published 2026).

Sequences of proteins named here, by UniProt entry; tags and fusion partners are left off. Residues count along the entry.
UniProt P00533, 696-1022 limits assumed: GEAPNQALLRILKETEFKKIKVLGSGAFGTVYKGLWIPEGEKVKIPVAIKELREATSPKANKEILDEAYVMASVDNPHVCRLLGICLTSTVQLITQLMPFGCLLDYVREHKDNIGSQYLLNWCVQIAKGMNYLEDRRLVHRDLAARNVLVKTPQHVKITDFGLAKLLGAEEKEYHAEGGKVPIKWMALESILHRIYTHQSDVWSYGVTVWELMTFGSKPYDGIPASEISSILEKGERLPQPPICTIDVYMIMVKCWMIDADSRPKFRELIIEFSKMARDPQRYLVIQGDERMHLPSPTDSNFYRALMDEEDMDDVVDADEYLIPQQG

Tests used:
[1] = test system: wildtype EGFR Ba/F3 cells; details: read-out: Anti-proliferative EC50 ± SE, wt, from literature (footnotes a, c); cited from earlier work
[2] = test system: L858R EGFR mutant Ba/F3 cells; details: read-out: Anti-proliferative EC50 ± SE, LR, from literature (footnotes a, c); cited from earlier work
WT EGFR kinase domain = WT EGFR kinase domain (Homo sapiens, UniProt P00533); details: read-out: Biochemical EGFR IC50, wt; from De Clercq and Heppner et al. 2019; cited from earlier work

| SMILES | EC50 [1] [nM] | EC50 [2] [nM] | IC50 (WT EGFR kinase domain) [nM] |
| --- | --- | --- | --- |
| C=CC(=O)Nc1ccc(OC)c(Nc2cc(-c3[nH]c(SC)nc3-c3ccc(F)cc3)ccn2)c1 | 20 | < 1 |  |
| O=C1c2cc(F)ccc2Nc2ccccc2N1Cc1ccccc1 |  |  | > 1000 |
